Literature values, collected in patent US7914763B1, “Process and apparatus for preparing manganese thiosulfate (MnTS) solution” (Tessenderlo Kerley, Inc., priority 2010, dated 2011).

Settings: pH of the compound as Mn plant nutrient source in water; cited from earlier work

## manganese chloride [MnCl2]
  respective pH: 6.9
